Details: single intravenous introduction, 2 and 20 mg/kg; blood serum, liver, kidneys, spleen, lymphocytes

concentration to the 10th minute relative to the initial one: almost equal to the initial one
Substance: bis-(γ-L-glutamyl)-L-cysteinyl-bis-glycine [GSSG]

From patent US7371411B2, “Methods for production of the oxidized glutathione composite with CIS-diamminedichloroplatinum and pharmaceutical compositions based thereof regulating metabolism, proliferation, differentiation and apoptotic mechanisms for normal and transformed cells” (Novelos Therapeutics, Inc., priority 1998, dated 2008)
